The test concerns the target T1, mu receptor (Mus musculus, UniProt P42866).
T1 construct: expressed in transfected cells
Briefly: Opioid receptor binding assay, μ, [3H]DAMGO, HEK 293 cell membranes. The arrangement: species or system rat. As to conditions: inhibition of [3H]DAMGO, HEK 293 cell membrane; compounds of Formula I. How it is done:
Receptor binding assay: Cell membrane preparations were obtained from HEK 293-stable transfectants expressing either the murine δ or μ or the human κ receptor. Opioid receptor binding assays were conducted in duplicate on membrane preparations that had been resuspended in 50 mM Tris-HCl, pH 7.5, utilizing [^3H]DPDPE, [^3H]DAMGO and [^3H]U69593 as radiologand for δ, μ, and κ respectively and 10 μM cyclazocine to define non-specific binding. Following a 1 hour incubation on ice, binding assays were terminated by filtration through Whatman GF/B filters. Filters were soaked in Ecoscint liquid scintillation solution (National Diagnostics, Manville, N.J.) and filter-bound radioactivity was measured using a Packard Tri-Carb 2100 TR liquid scintillation analyzer. Receptor binding data was analyzed by non-linear regression of saturation and competition curves using Prisim 3.0 software (GraphPad Software, San Diego, Calif.). Protein concentrations were determined with the Bio-Rad protein using bovine serum albumin as the standard.

The chains behind the UniProt entries cited, without tags or fusion partners.
UniProt P42866, whole entry: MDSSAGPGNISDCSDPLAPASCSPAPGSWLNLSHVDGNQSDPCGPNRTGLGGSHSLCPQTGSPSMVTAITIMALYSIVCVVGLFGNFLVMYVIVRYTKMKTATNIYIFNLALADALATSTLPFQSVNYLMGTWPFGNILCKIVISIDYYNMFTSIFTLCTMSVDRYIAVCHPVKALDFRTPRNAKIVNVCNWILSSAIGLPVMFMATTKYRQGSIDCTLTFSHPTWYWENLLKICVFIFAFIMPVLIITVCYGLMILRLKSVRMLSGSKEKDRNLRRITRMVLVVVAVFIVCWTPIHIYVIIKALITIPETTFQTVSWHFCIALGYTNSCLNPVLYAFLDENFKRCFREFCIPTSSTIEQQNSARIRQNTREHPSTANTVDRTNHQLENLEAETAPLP

The text below walks through data of patent US8188128B2, “Opioid receptor subtype-selective agents” (The University of Medicine and Dentistry of New Jersey, priority 2005, dated 2012).

Broadly, the IC50 is the point on the concentration scale where inhibition reaches its midpoint.

`CN(C)Cc1nc(-c2ccc(C(C)(C)C)cc2)n(-c2cccc(O)c2)n1` [DOP108, 3-[5-(4-tert-Butyl-phenyl)-3-dimethylaminomethyl-[1,2,4,]triazole-1-yl]-phenol] gave an IC50 greater than 10000 nM.
